Columns and labels:
Tetranychus urticae = Tetranychus urticae test (OP-resistant/spray treatment) (Example G), bean leaf disks; type: in vivo; details: active compound alone, 20 g/ha
Protocol: Tetranychus urticae Test (OP-Resistant/Spray Treatment)
After the desired period of time, the activity in % is determined.

Myzus persicae = Myzus persicae test (Example C), sprayed cabbage leaves; type: in vivo; details: 4 g/ha, alone

triazophos [triazophos (115)]
Kill in % after 6 d (Tetranychus urticae): 0%
Kill in % after 1d (Myzus persicae): 30%

Reference: patent publication US20100311677A1, “Active Ingredient Combinations Having Insecticidal and Acaricidal Properties” (Bayer CropScience AG, priority 2007, published 2010)
